Data: patent US20100144793A1, “NOVEL COMPOUNDS FOR THE TREATMENT OF DISEASES ASSOCIATED WITH AMYLOID OR AMYLOID-LIKE PROTEINS” (AC IMMUNE SA, priority 2006, published 2010)
Structures can show the parent of a compound that is named as a salt.

Protein sequences, listed by entry. Tags and fused reporters are not part of them. Residues count along the entry.
UniProt P05067, 672-713 limits assumed: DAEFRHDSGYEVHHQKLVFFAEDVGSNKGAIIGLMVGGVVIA

Target: T1, Aβ1-42 (Homo sapiens, UniProt P05067)
T1 construct: Aβ1-42 lyophilized powder (Bachem) was reconstituted in hexafluoroisopropanol (HFIP) to 1 mM; purchased Bachem
Assay: Thioflavin T spectrofluorescence assay: inhibition of Aβ1-42 aggregation
Format: biochemical
Procedure: The objective of this example was to evaluate the capacity of the compounds of the invention to inhibit the aggregation of (Aβ)1-42 peptide and to disaggregate pre-aggregated Aβ1-42 using a thioflavin T spectrofluorescence assay.
Aβ1-42 lyophilized powder (Bachem) was reconstituted in hexafluoroisopropanol (HFIP) to 1 mM. The peptide solution was sonicated for 15 min at room temperature, agitated overnight, and aliquots were placed into non-siliconized microcentrifuge tubes. The HFIP was then evaporated under a stream of argon. The resulting peptide film was dried under vacuum for 10 min, tightly sealed and stored at −80° C. until used.
Aβ1-42 peptide film was dissolved in DMSO to reach 400 μM. Assay solution in PBS was prepared in non-siliconized incubation tubes to reach the following concentrations: 330 μM small molecule, 33 μM Aβ1-42, 10 μM thioflavin T (ThT), and 12.8% DMSO. Therefore, the final molar ratio of small molecule to Aβ1-42 was 10:1. A positive control without a small molecule was prepared to measure maximum RFU. […] The solutions were then incubated for 24 h at 37° C., and the spectrofluorescence (relative fluorescence units; RFU) read in six replicates in black 384-well assay plates (Perkin-Elmer) on a Perkin-Elmer FluoroCount spectrofluorometer. Inhibition of aggregation is expressed as mean % inhibition±1 standard deviation (SD) according to the following equation: […]

c1ccc(-c2ccc(-c3cc(NCCNc4cc(-c5ccc(-c6ccccc6)cc5)[nH]n4)n[nH]3)cc2)cc1 [Compound 1am, N^1-(5-(Biphenyl-4-yl)-1H-pyrazol-3-yl)-N^2-(3-(biphenyl-4-yl)-1H-pyrazol-5-yl)ethane-1,2-diamine bishydrochloride]
inhibition of Aβ1-42 aggregation, in words (10:1 small molecule to Aβ1-42 molar ratio): strong inhibition of aggregation | inhibition at 330 µM (24 h): 73.9 ± 4%
